Where two headings read alike, the source gives them in different places.
What was measured:
rat DRG neurons = format: cell-based; conditions: for % inhibition (mean ± S.D) of AP in rDRG & [concentration (μM)]: concentration in brackets in the cell: A 5.00, B 0.70, C 5.00, D 0.75, E 0.83, F 1.00 μM; for inhibition of DRG action potentials: dose higher than the IC50 for NaV1.3: A 5 μM, B 0.7 μM, C 5 μM, D 0.75 μM, E 0.83 μM, F 1 μM
spinal-ligated rats = format: in vivo, rat; conditions: for ipsilateral paw withdrawal threshold compared to vehicle, chronic: Day 21, all time points; for ipsilateral paw withdrawal threshold compared to vehicle, acute: Day 17, data collapsed across 1 and 3 hour time points; for ipsilateral paw withdrawal threshold (PWT), summary: acute or 5-day administration, 1 and 3 hours following administration; for Contralateral paw withdrawal threshold prior to drug administration / Ipsilateral paw withdrawal threshold prior to drug administration: mean ± SEM
Experimental: This study aimed to evaluate the analgesic indications of compound C using the Chung model of neuropathic pain in rats. This study was performed at PsychoGenics, Inc., headquartered at 765 Old Saw Mill River Road, Tarrytown, N.Y.
Male Sprague Dawley rats (100-125 g) from Harlan (Indianapolis, Ind.) were used in the study. Upon receipt, rats were assigned unique identification numbers and were group housed with 3 rats per cage in polycarbonate cages with micro-isolator filter tops. All rats were examined, handled, and weighed prior to initiation of the study to assure adequate health and suitability. During the course of the study, 12/12 light/dark cycles were maintained, with lights on at 7:00 am EST. The room temperature was maintained between 20 and 23° C. with a relative humidity maintained around 50%. Chow and water were provided ad libitum for the duration of the study.
All compounds were administered at a dose volume of 5 ml/kg, q.d. for 5 days (Days 17-21 post-surgery). Reference compound: Gabapentin (100 mg/kg; TRC, Lot No. 1-SWM-154-1) was dissolved in 0.5% carboxy-methylcellulose (CMC) in water and administered orally. Test Compound: Compound C (0.25, 0.625, and 1.25 mg/kg; Lot n/a) was dissolved in distilled H2O to a stock concentration (20×), divided into single-use aliquots, and frozen. On each test day, one aliquot was thawed and diluted 20-fold with PBS (pH 7.2), and used as stock for formulation of test doses. Compound C was administered subcutaneously.
Under general anesthesia with continuous inhalation of isoflurane, surgery was performed with aseptic procedures in surgery unit. The skin at the area of the lower lumber and sacral level of the rat was shaved and disinfected with betadine and alcohol. Sterile ophthalmic ointment was used to lubricate the eyes. Animals were observed continuously for the level of anesthesia, testing for the animal's reflex response to tail or paw pinch and closely monitoring the animal's breathing. A heating pad was used to maintain body temperature at 37° C. while the animals recovered from anesthesia. A left longitudinal incision at the level next to the vertebral column was made and the left paraspinal muscles were separated. The transverse process of L6 was removed and nearby connective tissue cleaned to expose L5 and L6 spinal nerves. After the nerves were isolated and clearly visualized, 4-0 silk threads were used to ligate the left L5. The muscles were sutured with 4-0 silk threads and the wound closed by staples. All rats received an analgesic (buprenorphine, 0.05 mg/kg, s.c.) immediately before and 6 hours after surgery. Each rat was monitored until awake and moving freely around the recovery chamber. Animals were then single-housed for the duration of the study. Rats were allowed to recover for 2 weeks after surgery prior to testing.
Withdrawal from a mechanical stimulus was measured by applying von Frey (VF) filaments of ascending bending force to the plantar surface of the hind paws (ipsilateral and contralateral). A positive response was defined as withdrawal from the von Frey filament. Confirmation of the paw withdrawal threshold (PWT) is tested by assessing the response to the filament above and below the withdrawal response.
Rats were brought to the experimental room and allowed to habituate in the room for one hour prior to testing, and acclimated to the observation chambers for 15 minutes prior to taking PWT measurements.
Pre-operative baseline testing: Prior to surgery, all rats were tested using the VF test.
Post-operative baseline testing: On Day 14 following surgery, baseline responses were taken from all surgically-operated rats, and an ipsilateral PWT greater than 4.5 g was used as an exclusion criterion (13 rats excluded). Rats were subsequently balanced and assigned to treatment groups (n=10 per group) based on their post-op PWT values. […]

By UniProt entry, the sequences of proteins in these tests, tags left out. Where a name states a change or a piece, a line headed by the entry shows the natural chain unless it says otherwise.
UniProt P08104, whole entry: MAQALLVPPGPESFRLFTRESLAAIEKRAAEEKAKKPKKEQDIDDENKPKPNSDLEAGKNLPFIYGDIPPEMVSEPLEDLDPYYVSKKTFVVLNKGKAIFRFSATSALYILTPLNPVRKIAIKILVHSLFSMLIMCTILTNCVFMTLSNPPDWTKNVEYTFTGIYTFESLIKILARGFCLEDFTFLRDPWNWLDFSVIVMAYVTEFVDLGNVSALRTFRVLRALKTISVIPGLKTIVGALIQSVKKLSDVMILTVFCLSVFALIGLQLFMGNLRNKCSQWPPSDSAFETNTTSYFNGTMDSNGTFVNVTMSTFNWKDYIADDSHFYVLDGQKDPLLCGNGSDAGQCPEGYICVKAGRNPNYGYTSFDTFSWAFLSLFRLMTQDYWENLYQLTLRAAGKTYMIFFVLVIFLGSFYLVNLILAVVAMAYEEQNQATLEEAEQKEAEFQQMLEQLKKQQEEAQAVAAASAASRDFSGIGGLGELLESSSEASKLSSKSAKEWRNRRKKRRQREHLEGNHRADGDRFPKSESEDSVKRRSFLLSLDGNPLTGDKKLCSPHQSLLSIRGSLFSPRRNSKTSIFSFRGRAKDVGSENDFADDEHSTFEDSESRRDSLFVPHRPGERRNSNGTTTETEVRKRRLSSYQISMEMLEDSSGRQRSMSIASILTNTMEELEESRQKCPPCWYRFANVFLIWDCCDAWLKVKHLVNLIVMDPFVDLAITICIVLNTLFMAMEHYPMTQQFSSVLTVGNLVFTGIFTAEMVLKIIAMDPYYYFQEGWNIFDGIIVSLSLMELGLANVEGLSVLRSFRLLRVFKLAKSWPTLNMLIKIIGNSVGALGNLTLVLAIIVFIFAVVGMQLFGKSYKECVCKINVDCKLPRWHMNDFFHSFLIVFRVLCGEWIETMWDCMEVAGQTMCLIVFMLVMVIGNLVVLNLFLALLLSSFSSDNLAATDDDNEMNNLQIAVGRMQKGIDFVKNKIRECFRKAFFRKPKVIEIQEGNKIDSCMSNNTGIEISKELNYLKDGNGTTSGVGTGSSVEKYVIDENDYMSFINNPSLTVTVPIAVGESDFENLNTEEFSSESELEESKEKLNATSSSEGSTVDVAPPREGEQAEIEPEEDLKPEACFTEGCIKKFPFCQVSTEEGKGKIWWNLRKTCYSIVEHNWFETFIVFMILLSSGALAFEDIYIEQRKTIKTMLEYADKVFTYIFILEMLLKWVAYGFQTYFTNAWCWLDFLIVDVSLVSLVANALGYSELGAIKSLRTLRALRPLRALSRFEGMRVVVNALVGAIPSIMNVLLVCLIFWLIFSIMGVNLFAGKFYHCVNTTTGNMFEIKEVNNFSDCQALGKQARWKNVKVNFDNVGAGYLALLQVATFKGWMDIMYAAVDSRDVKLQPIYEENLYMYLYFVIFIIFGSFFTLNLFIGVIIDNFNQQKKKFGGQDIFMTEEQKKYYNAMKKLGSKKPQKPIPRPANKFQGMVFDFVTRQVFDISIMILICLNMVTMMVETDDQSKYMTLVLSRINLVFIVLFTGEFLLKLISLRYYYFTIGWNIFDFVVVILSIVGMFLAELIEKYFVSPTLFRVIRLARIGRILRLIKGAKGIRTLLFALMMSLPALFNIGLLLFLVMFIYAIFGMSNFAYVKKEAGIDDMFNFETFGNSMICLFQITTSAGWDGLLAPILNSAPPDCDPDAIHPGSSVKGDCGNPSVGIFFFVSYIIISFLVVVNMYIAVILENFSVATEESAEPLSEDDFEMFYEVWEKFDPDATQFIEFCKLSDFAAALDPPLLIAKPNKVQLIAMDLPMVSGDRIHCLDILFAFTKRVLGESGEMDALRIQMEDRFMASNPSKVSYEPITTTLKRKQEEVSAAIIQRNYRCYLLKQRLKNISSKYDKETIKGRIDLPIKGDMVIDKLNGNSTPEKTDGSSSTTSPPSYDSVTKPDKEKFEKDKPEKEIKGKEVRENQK
UniProt Q12809: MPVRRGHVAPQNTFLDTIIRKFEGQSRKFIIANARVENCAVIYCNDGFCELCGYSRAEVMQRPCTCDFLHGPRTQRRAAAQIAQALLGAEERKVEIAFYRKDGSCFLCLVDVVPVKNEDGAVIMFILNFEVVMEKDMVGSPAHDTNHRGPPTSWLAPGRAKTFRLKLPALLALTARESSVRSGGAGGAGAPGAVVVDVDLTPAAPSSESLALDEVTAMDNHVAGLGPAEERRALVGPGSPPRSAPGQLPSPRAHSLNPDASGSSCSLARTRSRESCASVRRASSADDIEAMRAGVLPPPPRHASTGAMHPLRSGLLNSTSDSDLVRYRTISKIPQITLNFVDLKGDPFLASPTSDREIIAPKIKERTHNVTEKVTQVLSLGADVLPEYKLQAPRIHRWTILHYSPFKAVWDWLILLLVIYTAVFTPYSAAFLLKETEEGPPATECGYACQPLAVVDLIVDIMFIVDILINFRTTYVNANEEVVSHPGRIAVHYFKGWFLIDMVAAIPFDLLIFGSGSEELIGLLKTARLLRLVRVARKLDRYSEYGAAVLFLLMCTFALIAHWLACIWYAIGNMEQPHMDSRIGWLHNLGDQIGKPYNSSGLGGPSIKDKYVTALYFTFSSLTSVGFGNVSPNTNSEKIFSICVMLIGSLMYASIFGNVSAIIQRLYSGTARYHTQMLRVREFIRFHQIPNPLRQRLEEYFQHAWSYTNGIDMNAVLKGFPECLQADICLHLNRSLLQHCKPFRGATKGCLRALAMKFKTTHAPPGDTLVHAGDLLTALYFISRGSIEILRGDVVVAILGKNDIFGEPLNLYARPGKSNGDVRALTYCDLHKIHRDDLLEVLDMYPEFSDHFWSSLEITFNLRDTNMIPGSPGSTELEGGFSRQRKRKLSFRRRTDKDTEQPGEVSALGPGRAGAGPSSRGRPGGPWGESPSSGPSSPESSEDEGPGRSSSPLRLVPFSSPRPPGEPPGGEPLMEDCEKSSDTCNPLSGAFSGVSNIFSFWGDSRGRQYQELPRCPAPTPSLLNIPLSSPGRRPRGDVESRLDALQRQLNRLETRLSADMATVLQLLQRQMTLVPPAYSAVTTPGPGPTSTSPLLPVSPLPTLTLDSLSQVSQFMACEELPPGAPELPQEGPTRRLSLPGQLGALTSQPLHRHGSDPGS
UniProt Q62968, whole entry: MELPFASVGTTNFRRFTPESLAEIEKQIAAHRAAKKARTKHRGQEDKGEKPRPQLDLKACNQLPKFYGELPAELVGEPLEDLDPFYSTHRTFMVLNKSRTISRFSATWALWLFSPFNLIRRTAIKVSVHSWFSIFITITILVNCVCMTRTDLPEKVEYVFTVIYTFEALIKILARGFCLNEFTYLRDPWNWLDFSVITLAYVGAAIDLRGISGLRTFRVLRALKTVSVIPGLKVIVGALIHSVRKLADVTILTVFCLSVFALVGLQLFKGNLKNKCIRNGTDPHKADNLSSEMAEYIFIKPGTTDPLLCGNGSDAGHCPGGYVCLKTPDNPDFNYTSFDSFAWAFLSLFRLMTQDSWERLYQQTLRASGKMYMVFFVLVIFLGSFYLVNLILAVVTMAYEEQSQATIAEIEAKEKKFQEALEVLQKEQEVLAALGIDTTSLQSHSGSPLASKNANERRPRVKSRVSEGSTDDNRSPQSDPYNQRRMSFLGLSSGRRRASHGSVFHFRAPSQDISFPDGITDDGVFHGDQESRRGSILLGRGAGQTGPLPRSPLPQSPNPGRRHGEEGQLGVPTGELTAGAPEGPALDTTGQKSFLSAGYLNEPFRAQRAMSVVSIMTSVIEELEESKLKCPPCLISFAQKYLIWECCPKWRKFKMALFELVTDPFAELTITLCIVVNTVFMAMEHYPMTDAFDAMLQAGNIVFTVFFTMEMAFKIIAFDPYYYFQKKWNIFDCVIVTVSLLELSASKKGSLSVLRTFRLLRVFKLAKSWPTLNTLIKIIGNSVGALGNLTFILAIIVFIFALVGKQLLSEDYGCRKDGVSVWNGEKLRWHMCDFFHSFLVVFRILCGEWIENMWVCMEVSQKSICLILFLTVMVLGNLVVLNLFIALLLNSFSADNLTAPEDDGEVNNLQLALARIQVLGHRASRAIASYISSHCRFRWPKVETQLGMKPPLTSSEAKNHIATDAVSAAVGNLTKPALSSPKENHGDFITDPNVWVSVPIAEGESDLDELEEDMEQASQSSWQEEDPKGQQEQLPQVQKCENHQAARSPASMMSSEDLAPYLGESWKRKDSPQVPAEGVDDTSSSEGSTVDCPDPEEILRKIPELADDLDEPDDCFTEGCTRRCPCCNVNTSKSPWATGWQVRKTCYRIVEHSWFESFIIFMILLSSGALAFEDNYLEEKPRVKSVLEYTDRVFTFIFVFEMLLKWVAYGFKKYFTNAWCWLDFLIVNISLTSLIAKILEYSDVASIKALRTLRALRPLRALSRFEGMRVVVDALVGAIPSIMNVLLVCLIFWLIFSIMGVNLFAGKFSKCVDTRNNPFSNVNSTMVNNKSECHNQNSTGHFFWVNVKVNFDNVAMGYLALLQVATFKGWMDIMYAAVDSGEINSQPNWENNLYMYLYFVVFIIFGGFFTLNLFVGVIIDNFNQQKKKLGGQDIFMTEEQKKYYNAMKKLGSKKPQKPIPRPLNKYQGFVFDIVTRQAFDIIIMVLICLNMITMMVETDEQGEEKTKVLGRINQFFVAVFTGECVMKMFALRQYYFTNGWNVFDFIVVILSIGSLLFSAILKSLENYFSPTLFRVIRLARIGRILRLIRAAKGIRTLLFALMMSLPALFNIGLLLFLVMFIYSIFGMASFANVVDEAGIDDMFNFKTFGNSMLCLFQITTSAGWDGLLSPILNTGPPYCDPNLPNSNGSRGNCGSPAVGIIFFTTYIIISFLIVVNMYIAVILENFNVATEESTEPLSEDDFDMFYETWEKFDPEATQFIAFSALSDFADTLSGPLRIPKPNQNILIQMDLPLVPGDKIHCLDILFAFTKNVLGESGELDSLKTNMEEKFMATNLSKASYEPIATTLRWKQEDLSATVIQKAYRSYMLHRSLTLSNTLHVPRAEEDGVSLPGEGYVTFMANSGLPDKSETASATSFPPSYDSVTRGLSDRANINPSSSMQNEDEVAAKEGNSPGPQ

rNaV1.3 channels = target: T1, rNaV1.3 channels (Rattus norvegicus, UniProt P08104); assay: cell-based; conditions: for dose response curves of native and synthetic peptides for inhibiting rNaV1.3 channels: HEK cells, each data point average of 3-5 experiments; for IC50: text of Example 3, read-out: apparent IC50, NaV1.3 channels
T1 construct: expressed in transfected cells; host or cells: HEK-293

hKV11.1 (hERG) channels = hKV11.1 (hERG) channels (Homo sapiens, UniProt Q12809); conditions: for % inhibition (mean ± S.D) of hERG at concentration × 10 IC50 for Nav1.3: each peptide at 10 × its IC50 for Nav1.3; for effect on hERG channel currents: highest dose examined
[1] = tested on: mouse embryonic stem cells derived cardiomyocytes (mES-CM); conditions: for effect on the frequency or the amplitude of action potentials in cardiomyocytes: A 3.8 μM, C 5 μM, D 0.75 μM, E 0.83 μM; for effect on the frequency or the amplitude of action potentials in cardiomyocytes / inhibition of action potentials in cardiomyocytes: B 9 μM, F 1 μM; for % inhibition (mean ± S.D) of AP frequency in mES-CM & [concentration (μM)]: concentration in brackets in the cell: A 3.75, B 9.00, C 5.00, D 0.75, E 0.83, F 1.00 μM
rNaV1.8 channels = target: T2, rNaV1.8 channels (Rattus norvegicus, UniProt Q62968); assay: Blocking of NaV1.8 channel currents, patch clamp, voltage ramp, ND7-23 cells; format: cell-based; conditions: text of Example 3; read-out: apparent IC50, NaV1.8 channels
T2 construct: expressed in transfected cells; host or cells: ND7-23

[2] = baseline of group assigned to 0.25 mg/kg
[3] = baseline of group assigned to 0.625 mg/kg
[4] = baseline of group assigned to 1.25 mg/kg

Compound	% inhibition (mean ± S.D) of AP in rDRG & [concentration (μM)] (rat DRG neurons)	inhibition of DRG action potentials (rat DRG neurons)	potency range in inhibiting the target channels (rNaV1.3 channels)	dose response curves of native and synthetic peptides for inhibiting rNaV1.3 channels (rNaV1.3 channels)	IC50 (rNaV1.3 channels) [nM]	% inhibition (mean ± S.D) of hERG at concentration × 10 IC50 for Nav1.3 (hKV11.1 (hERG) channels) [%]	effect on hERG channel currents (hKV11.1 (hERG) channels; ten times the IC50 for NaV1.3)	effect on the frequency or the amplitude of action potentials in cardiomyocytes [1]	% inhibition (mean ± S.D) of AP frequency in mES-CM & [concentration (μM)] [1]	inhibition of action potentials in cardiomyocytes [1]	also measured
CC(C)C[C@@H]1NC(=O)[C@@H](NC(=O)[C@H](C)N)CSSC[C@@H]2NC(=O)[C@@H]3CSSC[C@@H](C(=O)N[C@@H](CCCCN)C(=O)N[C@@H](Cc4ccc(O)cc4)C(=O)NCC(=O)N[C@@H](Cc4c[nH]c5ccccc45)C(=O)O)NC(=O)[C@H](Cc4c[nH]c5ccccc45)NC(=O)[C@H](CCCCN)NC(=O)[C@H](Cc4c[nH]cn4)NC(=O)[C@H](CCCCN)NC(=O)[C@H](CCC(N)=O)NC(=O)[C@H](CO)NC(=O)[C@H](CSSC[C@H](NC(=O)[C@H](CCCCN)NC(=O)[C@H](CCC(=O)O)NC(=O)CNC(=O)[C@H](Cc4ccccc4)NC(=O)CNC1=O)C(=O)N[C@@H](CC(N)=O)C(=O)N1CCC[C@H]1C(=O)N[C@@H](CO)C(=O)N[C@@H](CC(N)=O)C(=O)N[C@@H](CC(=O)O)C(=O)N[C@@H](CCCCN)C(=O)N3)NC(=O)[C@H](C(C)C)NC(=O)[C@H](CC(C)C)NC(=O)[C@H](CO)NC(=O)[C@H](CO)NC(=O)[C@H](CO)NC(=O)[C@H](CCCCN)NC2=O [Peptide C]	38 ± 14 [5.00] %	inhibited DRG action potentials	micromolar range	overlap completely	1200	2 ± 14	no effect	no	16 ± 8 [5.00] %	–	ipsilateral paw withdrawal threshold compared to vehicle, chronic (spinal-ligated rats; 0.625 mg/kg subcutaneously q.d. 5 days): significantly increased; ipsilateral paw withdrawal threshold compared to vehicle, acute (spinal-ligated rats; 0.625 mg/kg subcutaneously): significantly increased; ipsilateral paw withdrawal threshold (PWT), summary (spinal-ligated rats; 0.625 mg/kg): significantly increased; ipsilateral paw withdrawal threshold compared to vehicle, chronic (spinal-ligated rats; 1.25 mg/kg subcutaneously q.d. 5 days): significantly increased; ipsilateral paw withdrawal threshold compared to vehicle, acute (spinal-ligated rats; 1.25 mg/kg subcutaneously): significantly increased; ipsilateral paw withdrawal threshold (PWT), summary (spinal-ligated rats; 1.25 mg/kg): significantly increased; Contralateral paw withdrawal threshold prior to drug administration (spinal-ligated rats; [2]): 38.50 ± 5.95; Ipsilateral paw withdrawal threshold prior to drug administration (spinal-ligated rats; [2]): 2.94 ± 0.29; Contralateral paw withdrawal threshold prior to drug administration (spinal-ligated rats; [3]): 48.70 ± 5.83; Ipsilateral paw withdrawal threshold prior to drug administration (spinal-ligated rats; [3]): 2.94 ± 0.29; Contralateral paw withdrawal threshold prior to drug administration (spinal-ligated rats; [4]): 39.60 ± 5.55; Ipsilateral paw withdrawal threshold prior to drug administration (spinal-ligated rats; [4]): 2.99 ± 0.26; signs of sedation or toxicity (spinal-ligated rats; during pretreatment or testing, gabapentin 100 mg/kg orally, compound C 0.25, 0.625, 1.25 mg/kg subcutaneously): not observed
CC(C)C[C@@H]1NC(=O)[C@@H](NC(=O)[C@@H](N)CC(=O)O)CSSC[C@@H]2NC(=O)[C@@H]3CSSC[C@@H](C(=O)N[C@@H](CCCCN)C(=O)N[C@@H](Cc4ccc(O)cc4)C(=O)N[C@@H](CCCCN)C(=O)N[C@@H](CC(C)C)C(=O)N[C@@H](Cc4c[nH]c5ccccc45)C(=O)O)NC(=O)[C@H](Cc4c[nH]c5ccccc45)NC(=O)[C@H](CCCCN)NC(=O)[C@H](CC(=O)O)NC(=O)[C@H](CCCNC(=N)N)NC(=O)[C@H](CCCNC(=N)N)NC(=O)[C@H](CC(N)=O)NC(=O)[C@H](CSSC[C@H](NC(=O)CNC(=O)[C@H](CCCCN)NC(=O)[C@H](Cc4ccccc4)NC(=O)[C@H](Cc4c[nH]c5ccccc45)NC(=O)CNC1=O)C(=O)N[C@@H](CC(=O)O)C(=O)N1CCC[C@H]1C(=O)N[C@@H](CC(=O)O)C(=O)N[C@@H](CC(N)=O)C(=O)N[C@@H](CC(=O)O)C(=O)N[C@@H](CCCCN)C(=O)N3)NC(=O)[C@H](CCCCN)NC(=O)[C@H](Cc1ccc(O)cc1)NC(=O)CNC(=O)[C@H](CCC(=O)O)NC2=O [Peptide F]	46 ± 24 [1.00] %	inhibited DRG action potentials	sub-nanomolar range	overlap completely	130	6 ± 7	no effect	affected action potential frequency	25 ± 23 [1.00] %	about 20%	IC50 (rNaV1.8 channels): 170 nM
CSCC[C@@H]1NC(=O)[C@H](CC(=O)O)NC(=O)CNC(=O)[C@@H]2CSSC[C@H](NC(=O)[C@@H](N)Cc3ccc(O)cc3)C(=O)N[C@@H](CCC(N)=O)C(=O)N[C@@H](CCC(=O)O)C(=O)N[C@@H](Cc3ccccc3)C(=O)N[C@@H](CC(C)C)C(=O)N[C@@H](Cc3c[nH]c4ccccc34)C(=O)N[C@@H]([C@@H](C)O)C(=O)N[C@H]3CSSC[C@H](NC(=O)[C@H](C(C)C)NC1=O)C(=O)N[C@@H](CCCNC(=N)N)C(=O)N[C@@H](CC(C)C)C(=O)N[C@@H](Cc1c[nH]c4ccccc14)C(=O)N[C@H](C(=O)N[C@@H](CCCCN)C(=O)N[C@@H](CCCCN)C(=O)N[C@@H](CCCNC(=N)N)C(=O)N[C@@H](CC(C)C)C(N)=O)CSSC[C@H](NC(=O)[C@H](CCCCN)NC(=O)[C@H](CCCNC(=N)N)NC(=O)[C@H](CCC(=O)O)NC(=O)[C@H](CCC(=O)O)NC(=O)[C@H](CC(=O)O)NC3=O)C(=O)N2 [Peptide B]	28 ± 25 [0.70] %	inhibited DRG action potentials	sub-nanomolar range	overlap completely	230	25 ± 7.5	minor inhibitory action	affected action potential frequency	35 ± 36 [9.00] %	about 20%	inhibition of hERG (hKV11.1 (hERG) channels; only at the highest dose examined, ten times the IC50 for NaV1.3): 25%

Reference: patent US8399026B2, “Peptides isolated from spider venom, and uses thereof” (priority 2009, dated 2013)
